Assay results: paper PMC12613146
Values joined by “and” are separate entries in the source; they are usually repeats but may differ in a detail not shown here. Equal entries are not always repeated.

Tests used:
[1] = target: ectodomain of the epidermal growth factor receptor, EGFR25-645 (human); assay: BLI; biotinylated ligand (50 nM, 5 min) on streptavidin sensors, DDM proteomicelles of the membrane protein in the wells (six two-fold dilutions); 20 mM Tris-HCl, 300 mM KCl, 0.2% (w/v) DDM, 1 mg/ml BSA, pH 7.5; 22 °C; global fits, KD = koff/kon
[2] = target: ectodomain of the epidermal growth factor receptor (EGFR) (human) (UniProt P00533); assay: BLI; biotinylated protein ligand (50 nM, 5 min) on streptavidin sensors; detergent-solubilised membrane protein (proteomicelles) in the wells, six 2-fold dilutions; 300 mM KCl, 20 mM Tris-HCl, 0.2% (w/v) DDM, 1 mg/mL BSA, pH 7.5; 22 °C; KD = koff/kon

ZEGFR(GGS)2tFhuA (designed binder)
koff [1]: 8.5e-05 s⁻¹ and 9.5e-05 s⁻¹ and 9e-05 s⁻¹
kon [1]: 7900 M⁻¹ s⁻¹ and 7700 M⁻¹ s⁻¹ and 7800 M⁻¹ s⁻¹

Z_(EGFR)-tFhuA (designed binder)
Kd [2]: 16 nM
koff [2]: 9e-05 s⁻¹
